Tested on: Caco-2 cells
Settings: human

Clcdfda, diffusional clearance of CDFDA (fixed): 0.004 (fixed) mL/min
Substance: CDF diacetate [CDFDA]

Source: paper PMC5856607 (Journal of pharmaceutical sciences, 2017)
